Values of other authors, collected in patent US6225321A (priority 1997, dated 2001).

Columns and labels:
human = details: in vivo; cited from earlier work
Mu receptor = details: Schmidt et al. 1985; cited from earlier work
Kappa receptor = details: Schmidt et al. 1985; cited from earlier work

| Compound | addiction after continuous use (human) | dose needed to elicit the same analgesic effect (human) | action on Mu receptor (Mu receptor) | action on Kappa receptor (Kappa receptor) | duration of analgesic effect, clinical experience (human) |
| --- | --- | --- | --- | --- | --- |
| Oc1ccc2c3c1O[C@H]1[C@@H](O)CC[C@@]4(O)[C@@H](C2)N(CC2CCC2)CC[C@]314 [Nalbuphine] | no significant addiction | 10 mg | antagonist | agonist | – |
| Oc1ccc2c3c1O[C@H]1[C@@H](O)CC[C@@]4(O)[C@@H](C2)N(CC2CCC2)CC[C@]314 [Nalbuphine hydrochloride] | – | – | – | – | 4 to 5 days |
| CO[C@]12CC[C@@]3(C[C@@H]1[C@](C)(O)C(C)(C)C)[C@H]1Cc4ccc(O)c5c4[C@@]3(CCN1CC1CC1)[C@H]2O5 [Buprenorphine] | – | 0.3 mg | – | – | – |

Counter-ions that a name gives are not always drawn.
